{"source": "patent US20070049514A1", "about": "“Resonance modulator for diagnosis and therapy” (priority 2003, published 2007)", "system": "T-lymphocytes (CD markers)", "assay": "A-007 0.25% gel intravaginally, T-cell profile (tissue/blood)", "type": "in vivo, Humans", "conditions": "2 grams of 0.25% gel per day for 5 days", "data": [{"smiles": "O=[N+]([O-])c1ccc(NN=C(c2ccc(O)cc2)c2ccc(O)cc2)c([N+](=O)[O-])c1", "note": "[Compound A-007, 4,4′-dihydroxybenzophenone-2,4-dinitrophenylhydrazone]", "values": [{"measurement": "staining for CD45RO+ lymphocytes (activated) in HPV infected cervical epithelium", "result": "becomes very intense"}]}]}
